Data: IntAct's records for PubMed 35512704

B1: RAC-alpha serine/threonine-protein kinase (Homo sapiens), P31749 (parent)
chain: MSDVAIVKEGWLHKRGEYIKTWRPRYFLLKNDGTFIGYKERPQDVDQREAPLNNFSVAQCQLMKTERPRPNTFIIRCLQWTTVIERTFHVETPEEREEWTTAIQTVADGLKKQEEEEMDFRSGSPSDNSGAEEMEVSLAKPKHRVTMNEFEYLKLLGKGTFGKVILVKEKATGRYYAMKILKKEVIVAKDEVAHTLTENRVLQNSRHPFLTALKYSFQTHDRLCFVMEYANGGELFFHLSRERVFSEDRARFYGAEIVSALDYLHSEKNVVYRDLKLENLMLDKDGHIKITDFGLCKEGIKDGATMKTFCGTPEYLAPEVLEDNDYGRAVDWWGLGVVMYEMMCGRLPFYNQDHEKLFELILMEEIRFPRTLGPEAKSLLSGLLKKDPKQRLGGGSEDAKEIMQHRFFAGIVWQHVYEKKLSPPFKPQVTSETDTRYFDEEFTAQMITITPPDQDDSMECVDSERRPHFPQFSYSASGTA
partner: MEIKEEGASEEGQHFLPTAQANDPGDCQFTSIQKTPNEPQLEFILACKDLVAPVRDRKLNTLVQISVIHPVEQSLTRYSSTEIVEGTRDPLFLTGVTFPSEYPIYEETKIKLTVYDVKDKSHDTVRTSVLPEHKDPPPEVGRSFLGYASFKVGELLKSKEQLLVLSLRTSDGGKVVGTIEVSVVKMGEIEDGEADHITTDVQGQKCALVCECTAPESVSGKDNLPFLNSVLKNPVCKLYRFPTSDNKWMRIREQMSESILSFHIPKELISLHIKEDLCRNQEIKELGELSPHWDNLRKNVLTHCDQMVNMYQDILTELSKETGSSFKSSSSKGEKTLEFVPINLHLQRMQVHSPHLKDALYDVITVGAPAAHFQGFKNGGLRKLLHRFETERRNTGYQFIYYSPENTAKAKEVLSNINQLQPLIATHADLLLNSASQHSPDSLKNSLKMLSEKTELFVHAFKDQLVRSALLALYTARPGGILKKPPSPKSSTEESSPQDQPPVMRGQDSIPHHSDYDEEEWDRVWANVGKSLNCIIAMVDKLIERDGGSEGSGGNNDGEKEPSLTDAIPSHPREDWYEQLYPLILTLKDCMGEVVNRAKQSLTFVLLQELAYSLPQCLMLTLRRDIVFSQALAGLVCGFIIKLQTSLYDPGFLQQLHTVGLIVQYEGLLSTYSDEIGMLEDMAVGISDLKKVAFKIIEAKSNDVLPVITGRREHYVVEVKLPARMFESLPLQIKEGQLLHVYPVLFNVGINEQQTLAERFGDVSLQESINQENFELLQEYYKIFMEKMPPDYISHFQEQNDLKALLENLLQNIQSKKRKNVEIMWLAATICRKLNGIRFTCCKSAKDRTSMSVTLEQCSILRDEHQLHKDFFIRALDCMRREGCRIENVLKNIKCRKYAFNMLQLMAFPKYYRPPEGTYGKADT
B2: RAC-alpha serine/threonine-protein kinase (Homo sapiens), P31749 (parent)
chain: B1 chain
partner: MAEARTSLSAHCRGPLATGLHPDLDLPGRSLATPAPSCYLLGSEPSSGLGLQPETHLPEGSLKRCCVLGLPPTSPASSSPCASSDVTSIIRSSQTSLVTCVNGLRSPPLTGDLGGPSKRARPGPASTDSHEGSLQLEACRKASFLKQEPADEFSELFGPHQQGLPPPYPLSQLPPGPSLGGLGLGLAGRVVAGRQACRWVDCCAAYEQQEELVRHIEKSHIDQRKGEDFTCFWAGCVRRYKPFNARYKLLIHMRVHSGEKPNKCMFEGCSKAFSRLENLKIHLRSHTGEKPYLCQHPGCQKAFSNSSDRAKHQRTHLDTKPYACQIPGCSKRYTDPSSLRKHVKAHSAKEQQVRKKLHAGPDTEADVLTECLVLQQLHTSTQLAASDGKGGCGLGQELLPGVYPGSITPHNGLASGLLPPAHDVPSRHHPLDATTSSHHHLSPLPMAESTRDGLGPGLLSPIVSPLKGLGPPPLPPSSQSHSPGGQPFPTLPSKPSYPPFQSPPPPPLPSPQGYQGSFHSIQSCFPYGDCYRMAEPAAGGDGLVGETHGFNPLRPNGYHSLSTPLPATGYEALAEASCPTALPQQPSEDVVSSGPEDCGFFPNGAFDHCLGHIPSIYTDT
B3: RAC-alpha serine/threonine-protein kinase (Homo sapiens), P31749 (parent)
chain: B1 chain
partner: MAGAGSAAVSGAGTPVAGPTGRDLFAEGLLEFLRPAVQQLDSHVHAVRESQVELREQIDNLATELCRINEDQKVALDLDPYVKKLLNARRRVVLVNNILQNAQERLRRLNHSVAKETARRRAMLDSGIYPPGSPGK
B4: RAC-alpha serine/threonine-protein kinase (Homo sapiens), P31749 (parent)
chain: B1 chain
partner: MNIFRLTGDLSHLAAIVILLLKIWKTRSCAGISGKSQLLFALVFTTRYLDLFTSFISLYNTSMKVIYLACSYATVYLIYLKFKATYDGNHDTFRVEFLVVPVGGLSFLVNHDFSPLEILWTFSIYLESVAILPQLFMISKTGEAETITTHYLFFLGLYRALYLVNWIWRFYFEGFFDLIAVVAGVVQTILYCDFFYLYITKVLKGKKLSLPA
B5: RAC-alpha serine/threonine-protein kinase (Homo sapiens), P31749 (parent)
chain: B1 chain
partner: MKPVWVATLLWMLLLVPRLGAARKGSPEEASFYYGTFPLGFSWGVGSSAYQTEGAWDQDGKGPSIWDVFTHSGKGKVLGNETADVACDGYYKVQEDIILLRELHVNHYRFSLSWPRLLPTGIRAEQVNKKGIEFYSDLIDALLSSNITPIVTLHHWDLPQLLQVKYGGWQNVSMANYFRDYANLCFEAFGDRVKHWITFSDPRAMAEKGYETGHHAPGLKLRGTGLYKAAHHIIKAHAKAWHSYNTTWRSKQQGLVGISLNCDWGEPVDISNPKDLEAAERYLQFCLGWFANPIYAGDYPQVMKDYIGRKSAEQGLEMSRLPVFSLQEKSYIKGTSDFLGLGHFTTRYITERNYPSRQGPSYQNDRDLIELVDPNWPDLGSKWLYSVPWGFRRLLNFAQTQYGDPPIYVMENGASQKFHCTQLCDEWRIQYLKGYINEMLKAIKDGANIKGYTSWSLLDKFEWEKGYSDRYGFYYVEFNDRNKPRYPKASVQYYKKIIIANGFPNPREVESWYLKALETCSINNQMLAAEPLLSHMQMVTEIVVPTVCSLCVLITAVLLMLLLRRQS
B6: RAC-alpha serine/threonine-protein kinase (Homo sapiens), P31749 (parent)
chain: B1 chain
partner: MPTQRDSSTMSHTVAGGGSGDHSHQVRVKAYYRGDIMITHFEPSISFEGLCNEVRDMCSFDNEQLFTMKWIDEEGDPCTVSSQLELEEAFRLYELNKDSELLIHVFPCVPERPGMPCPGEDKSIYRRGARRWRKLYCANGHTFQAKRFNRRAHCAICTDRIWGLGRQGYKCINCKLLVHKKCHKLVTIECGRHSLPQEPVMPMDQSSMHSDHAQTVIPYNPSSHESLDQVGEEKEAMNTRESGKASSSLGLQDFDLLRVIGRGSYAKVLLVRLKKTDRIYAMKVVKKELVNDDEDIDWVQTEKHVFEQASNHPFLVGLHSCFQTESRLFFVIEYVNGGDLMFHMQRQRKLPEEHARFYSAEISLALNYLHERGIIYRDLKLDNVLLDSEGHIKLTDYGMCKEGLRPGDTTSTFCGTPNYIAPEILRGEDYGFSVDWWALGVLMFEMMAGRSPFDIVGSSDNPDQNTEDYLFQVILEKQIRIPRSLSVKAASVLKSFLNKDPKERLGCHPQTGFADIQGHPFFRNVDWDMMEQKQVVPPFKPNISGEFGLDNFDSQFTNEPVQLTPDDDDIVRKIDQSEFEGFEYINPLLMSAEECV

Variants of: B1
Conditions: with inp4b_human INPP4B

Row | effect of a mutation on the interaction | Variant
1 | with no effect | E17K

Variants of: B2
Conditions: with glis1_human GLIS1, Q8NBF1

Row | effect of a mutation on the interaction | Variant
2 | with no effect | E17K

Variants of: B3
Conditions: with snapn_human SNAPIN

Row | effect of a mutation on the interaction | Variant
3 | with no effect | E17K

Variants of: B4
Conditions: with erd22_human KDELR2, P33947

Row | effect of a mutation on the interaction | Variant
4 | with no effect | E17K

Variants of: B5
Conditions: with lctl_human LCTL

Row | effect of a mutation on the interaction | Variant
5 | with no effect | E17K

Variants of: B6
Conditions: with kpci_human PRKCI

Row | effect of a mutation on the interaction | Variant
6 | with no effect | E17K
